# Measured values from patent US11110104B2, “Glutamine antagonists for the treatment of cognitive deficits and psychiatric disorders” (THE JOHNS HOPKINS UNIVERSITY, priority 2015, dated 2021).
# Test system: EcoHIV
# Test: Viral load in EcoHIV-infected mice
# Conditions: DON 1 mg/kg, i.p., q.o.d.
compound,measurement,value
"[N-]=[N+]=CC(=O)CC[C@H](N)C(=O)O [DON, 6-diazo-5-oxo-L-norleucine]",peripheral viral load,caused an increase in peripheral viral load
